System: 60 human cancerous cell lines
Test: NCI-60 panel
Type: cell-based

SMILES: N=c1c2c(-c3ccccc3)c(-c3ccccc3)n(Cc3ccccc3)c2ncn1CCCO [Compound 5a, 3-(7-Benzyl-4-imino-5,6-diphenyl-4,7-dihydro-3H-pyrrolo[2,3-d]pyrimidin-3-yl)propan-1-ol]
- effect at the highest concentration: cell death in all cell lines
